Source: ChEMBL document CHEMBL1128099, “Morphinan cyclic imines and pyrrolidines containing a constrained phenyl group: High affinity opioid agonists” (1995)
pIC50: −log10 of the molar value.

Protein sequences, listed by entry. Tags and fused reporters are not part of them.
UniProt P41144, whole entry: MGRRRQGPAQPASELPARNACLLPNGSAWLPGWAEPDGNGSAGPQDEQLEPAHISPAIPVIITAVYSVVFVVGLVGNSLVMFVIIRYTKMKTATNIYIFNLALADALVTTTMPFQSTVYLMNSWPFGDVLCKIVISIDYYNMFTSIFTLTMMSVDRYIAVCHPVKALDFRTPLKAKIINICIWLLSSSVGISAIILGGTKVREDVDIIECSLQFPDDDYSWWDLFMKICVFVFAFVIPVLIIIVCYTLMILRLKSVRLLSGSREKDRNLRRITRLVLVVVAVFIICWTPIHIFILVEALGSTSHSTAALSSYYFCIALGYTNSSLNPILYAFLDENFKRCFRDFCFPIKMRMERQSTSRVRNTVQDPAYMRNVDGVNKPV
UniProt P97266, whole entry: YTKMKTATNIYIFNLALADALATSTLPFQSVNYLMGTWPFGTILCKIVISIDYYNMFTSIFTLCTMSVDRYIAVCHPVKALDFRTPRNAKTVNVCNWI

How the values were obtained:
[1] = biological target: T1, Kappa-type opioid receptor (Cavia porcellus, UniProt P41144); experiment: Compound was tested for its ability to displace [3H]U-69593 from Opioid receptor kappa 1 in hartley guinea pig brain membrane in the presence of 100 nM of U-69,593
[2] = biological target: T1, Kappa-type opioid receptor; experiment: Compound was tested for its ability to displace bremazocine from Opioid receptor kappa 2 in hartley guinea pig brain membrane
Mu-type opioid receptor = Mu-type opioid receptor (Cavia porcellus, UniProt P97266); experiment: Compound was tested for its ability to displace [3H]DAMGO from mu opioid receptor in hartley guinea pig brain membrane in the presence of 100 nM of DAMGO

SMILES | pIC50 [1] | pIC50 [2] | pIC50 (Mu-type opioid receptor)
COC12C=CC34C[C@@]1(C)C(c1ccccc1)=N[C@H]2C31CCN(C)C4Cc2ccc(O)cc21 | 9.28 | 8.21 | –
COc1ccc2c(c1OC)[C@]13CC[N+](C)(C)[C@H](C2)[C@]12C=C[C@]1(OC)[C@H]3N=C(c3ccccc3)[C@]1(C)C2 | 8.33 | 6.42 | 9.25
CO[C@@]12C=C[C@]34C[C@]1(C)[C@@H](c1ccccc1)N[C@H]2[C@@]31CCN(C)[C@@H]4Cc2ccc(O)cc21 | 9.59 | 8.59 | –
CCOc1ccc(C2=N[C@H]3C45CCN(C)C(Cc6ccc(OC)c(O)c64)[C@]54C=C[C@@]3(OC)[C@@]2(C)C4)cc1 | 7.01 | 6.48 | –
COc1ccc2c(c1O)C13CCN(C)C(C2)C12C=CC1(OC)[C@H]3N=C(c3ccccc3)[C@]1(C)C2 | 7.77 | 6.50 | –
CO[C@]12C=C[C@]34C[C@@]1(C)[C@H](c1ccccc1)N(C)[C@H]2C31CCN(C)C4Cc2ccc(O)cc21 | 9.28 | 8.04 | –
